Literature values, collected in patent US20160143906A1, “EFFICACIOUS TREATMENT OF NSCLC AND PREDICTIVE CLINICAL MARKER OF THE RESPONSIVENESS OF A TUMOUR TO A TREATMENT” (Boehringer Ingelheim International GmbH, priority 2013, published 2016).

Tested on: tumors with activating EGFR mutations or the Alk translocation
Details: monotherapy; non-squamous patients with activating EGFR mutations or Alk translocation; cited from earlier work

COc1cc2ncnc(Nc3ccc(F)c(Cl)c3)c2cc1OCCCN1CCOCC1 [gefitinib]
OS improvement: no OS improvements have been observed | median PFS: around 20 months
